Broadly, the inhibition is the drop in the measured response relative to a control, in per cent.

Protein sequences, listed by entry. Tags and fused reporters are not part of them.
UniProt P53350, whole entry: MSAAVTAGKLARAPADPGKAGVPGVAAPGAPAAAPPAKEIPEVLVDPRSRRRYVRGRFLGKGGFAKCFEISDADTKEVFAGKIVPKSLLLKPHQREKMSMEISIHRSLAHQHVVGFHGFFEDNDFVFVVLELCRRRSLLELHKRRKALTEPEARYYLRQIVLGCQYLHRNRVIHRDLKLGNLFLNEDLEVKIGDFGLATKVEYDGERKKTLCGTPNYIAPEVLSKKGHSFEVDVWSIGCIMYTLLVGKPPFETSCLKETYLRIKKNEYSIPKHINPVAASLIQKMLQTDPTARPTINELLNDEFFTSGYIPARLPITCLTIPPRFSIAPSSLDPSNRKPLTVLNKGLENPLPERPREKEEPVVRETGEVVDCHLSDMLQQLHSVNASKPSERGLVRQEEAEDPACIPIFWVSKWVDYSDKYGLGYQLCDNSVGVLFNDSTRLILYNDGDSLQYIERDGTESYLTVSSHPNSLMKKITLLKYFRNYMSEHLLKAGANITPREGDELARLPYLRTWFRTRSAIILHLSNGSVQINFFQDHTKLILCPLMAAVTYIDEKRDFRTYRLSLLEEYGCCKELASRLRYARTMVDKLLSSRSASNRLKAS

Structures are written as SMILES. The entries are a selection whose mix differs from that of the whole data set. Active and inactive are the calls of the source. Rule as the data show it: active = inhibition above about 34% (passing the limit was not always enough); inactive = the rest.

The values that follow come from PubChem BioAssay AID693 (University of Pittsburgh Molecular Library Screening Center, 2007).

The test has as its target Serine/threonine-protein kinase PLK1 (Homo sapiens) (UniProt P53350). As to the kind of experiment: Plk1 polo box domain binding inhibitors, primary screen, biochemical, fluorescence polarization (AID 693). The settings on record: Plk1 PBD phosphopeptide binding, active compounds read high,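 tested at about 20 µM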. For orientation: Fluorescence polarisation rises when a labelled molecule tumbles more slowly, as on binding a larger partner.
Turning to `COc1ccccc1OP(C)(=O)Nc1ccc(C)c(C)c1` (centres undefined), the inhibition was inactive: 1.75%. `Cc1nc2ccc3ccccc3c2o1.O=[N+]([O-])c1cc([N+](=O)[O-])c(O)c([N+](=O)[O-])c1`: the inhibition is inactive: 2.24%. As for `COc1ccc(OP(C)(=O)Nc2ccccn2)cc1` (centres undefined), the figure is inactive: 4.79%; as for `CN(C)CCOC(=O)C(O)(c1ccccc1)C1CCCC1` (centres undefined), inactive: -6.36%. Take `COc1ccccc1OP(C)(=O)Nc1ccc(C)cc1C` (centres undefined): the inhibition is inactive: -22%. As to `CP(=O)(Nc1ccccn1)Oc1ccccc1` (centres undefined), the inhibition was inactive: 34.4%. Regarding `Cc1c(NP(C)(=O)Oc2ccc(C(C)C)cc2)c(=O)n(-c2ccccc2)n1C` (centres undefined), the inhibition is inactive: -3.88%.

Take `COc1ccccc1OP(C)(=O)Nc1c(C)n(C)n(-c2ccccc2)c1=O` (centres undefined): the inhibition was inactive: 0.00446%. For `CP(=O)(Oc1ccccc1)N1CCOC1=O` (centres undefined) the value was inactive: 3%. For `CCN(CC)CC(O)COC(=O)C(O)(c1ccccc1)C1CCCCC1` (centres undefined) the value was inactive: 13.3%; for `CC(C)(C)c1ccc(OP(C)(=O)O)cc1`, inactive: 17.1%. As for `CP(=O)(Nc1ccc(Cl)cc1)Oc1ccc(F)cc1` (centres undefined), the figure is inactive: -1.01%. On to `CP(=O)(OC12CC3CC(CC(C3)C1)C2)OC12CC3CC(CC(C3)C1)C2`, for which the inhibition was inactive: 20.3%.

`CN(C)CCOC(=O)C(O)(c1ccccc1)C1CCCCC1` (centres undefined): the inhibition is inactive: 1.01%. For `COc1ccc(OP(C)(=O)Nc2cccc(Br)c2)cc1` (centres undefined) the value was inactive: -30.6%. On to `CCOP(C)(=S)SCC(=O)NC(C)(CC)C(=O)O` (centres undefined), for which the inhibition was inactive: 2.07%. In the case of `CP(=O)(Nc1ccc2c(c1)OCCO2)Oc1ccccc1` (centres undefined), the inhibition is inactive: 23%.

On to `CP(=O)(Nc1ccccc1F)Oc1ccccc1` (centres undefined), for which the inhibition is inactive: 7.89%. Take `CP(=O)(Nc1ccccc1)Oc1ccc(F)cc1` (centres undefined): the inhibition was inactive: -4.19%.

For the compound `CCN(CC)CCCOC(=O)C(O)(c1ccccc1)C1CCCCC1` (centres undefined), the inhibition is inactive: -10.8%. Turning to `Cc1cc(C)cc(OP(C)(=O)Nc2ccc(C)cc2C)c1` (centres undefined), the inhibition was inactive: 0.74%.

Regarding `Cc1ccc(C)c(NP(C)(=O)Oc2ccccc2)c1` (centres undefined), the inhibition was inactive: 7.76%. As to `Cc1cc(C)cc(OP(C)(=O)Nc2ccccn2)c1` (centres undefined), the inhibition was inactive: -9.01%. As for `Cc1nc2ccc3ccccc3c2s1.O=[N+]([O-])c1cc([N+](=O)[O-])c(O)c([N+](=O)[O-])c1`, the figure is inactive: 7.54%; as for `COc1ccccc1OP(C)(=O)Nc1c(C)cccc1C` (centres undefined), inactive: -5.92%. Regarding `CP(=S)(Nn1cnnc1)Oc1ccccc1` (centres undefined), the inhibition was inactive: 16.4%.

Take `CP(=O)(NC(=O)Nc1ccccc1)Oc1ccccc1` (centres undefined): the inhibition was inactive: -6.21%. With `CP(=O)(Nc1ccccn1)Oc1ccc(Cl)cc1` (centres undefined), the inhibition is inactive: -0.27%. For `COc1ccc(OP(C)(=O)Nc2cccc(F)c2)cc1` (centres undefined) the value was inactive: 0.5%.
